Measured values published in patent US20250325688A1, “ANTIBODY-DRUG CONJUGATE CONTAINING PROTEIN DEGRADATION AGENT BIOACTIVE COMPOUND, METHOD FOR PREPARING SAME, AND USE THEREOF” (Medilink Therapeutics (Suzhou) Co., Ltd., priority 2022, published 2025).

T1: human B7H3-4IgG-his (human, UniProt Q5ZPR3 27-461)
T1 construct: range 27-461; Recombinant antigen expressed in HEK293F; also called human B7H3-4IgG-His protein
T1 sequence: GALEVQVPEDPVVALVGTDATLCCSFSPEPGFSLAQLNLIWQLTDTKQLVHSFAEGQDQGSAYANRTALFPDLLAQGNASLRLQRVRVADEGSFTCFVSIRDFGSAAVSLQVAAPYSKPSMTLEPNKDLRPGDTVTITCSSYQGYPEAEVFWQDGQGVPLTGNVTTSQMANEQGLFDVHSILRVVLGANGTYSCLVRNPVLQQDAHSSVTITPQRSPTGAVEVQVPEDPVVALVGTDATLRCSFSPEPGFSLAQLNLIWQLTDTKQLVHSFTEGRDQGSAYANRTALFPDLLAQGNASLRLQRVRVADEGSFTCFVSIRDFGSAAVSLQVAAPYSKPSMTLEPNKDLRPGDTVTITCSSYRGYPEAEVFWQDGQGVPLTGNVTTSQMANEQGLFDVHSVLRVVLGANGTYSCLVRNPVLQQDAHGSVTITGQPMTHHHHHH

T2: B7H3 on tumor cells (MCF-7, A549, PC-3) (human, UniProt Q5ZPR3 29-534)
T2 construct: whole, on cells; also called B7H3 proteins expressed in solid tumor cells
T2 sequence (looked up): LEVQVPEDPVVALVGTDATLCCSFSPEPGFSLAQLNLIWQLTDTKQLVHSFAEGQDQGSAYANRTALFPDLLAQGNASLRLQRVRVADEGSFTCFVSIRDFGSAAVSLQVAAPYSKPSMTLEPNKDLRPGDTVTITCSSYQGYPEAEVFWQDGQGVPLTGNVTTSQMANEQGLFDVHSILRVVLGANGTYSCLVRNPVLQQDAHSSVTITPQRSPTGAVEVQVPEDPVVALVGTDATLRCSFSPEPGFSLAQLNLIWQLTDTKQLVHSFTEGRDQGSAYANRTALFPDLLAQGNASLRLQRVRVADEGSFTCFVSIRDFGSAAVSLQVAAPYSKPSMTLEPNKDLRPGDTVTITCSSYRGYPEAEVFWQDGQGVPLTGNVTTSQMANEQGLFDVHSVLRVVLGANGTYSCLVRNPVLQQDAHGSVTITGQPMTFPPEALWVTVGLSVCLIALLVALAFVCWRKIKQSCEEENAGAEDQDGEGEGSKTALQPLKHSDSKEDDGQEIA

T3: monkey B7H3-4IgG-his (monkey)
T3 chain: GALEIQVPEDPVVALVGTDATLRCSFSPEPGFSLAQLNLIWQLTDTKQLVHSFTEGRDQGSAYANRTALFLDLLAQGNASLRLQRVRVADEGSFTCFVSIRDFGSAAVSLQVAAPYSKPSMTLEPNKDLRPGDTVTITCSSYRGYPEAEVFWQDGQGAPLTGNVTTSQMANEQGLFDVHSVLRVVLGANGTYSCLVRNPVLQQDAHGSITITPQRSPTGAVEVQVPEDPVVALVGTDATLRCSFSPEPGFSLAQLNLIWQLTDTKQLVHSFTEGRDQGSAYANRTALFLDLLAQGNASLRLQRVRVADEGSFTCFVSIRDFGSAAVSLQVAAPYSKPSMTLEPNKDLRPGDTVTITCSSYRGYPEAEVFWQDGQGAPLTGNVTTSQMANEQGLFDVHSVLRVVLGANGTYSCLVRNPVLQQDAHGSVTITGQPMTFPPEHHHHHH


Tests used:
human B7H3-4IgG-his = biological target: T1, human B7H3-4IgG-his; experiment: ELISA, coated human B7H3-4IgG-his, anti-human Fc-HRP detection
Description: (§1) The affinity of the B7H3 fully human antibodies for human B7H3-4IgG-his and monkey B7H3-4IgG-his proteins was assayed by an ELISA method. The specific experimental procedures are as follows: the human B7H3-4IgG-his or monkey B7H3-4IgG-his protein was diluted with a carbonate buffer with a pH value of 9.6 to a final concentration of 1 g/mL and added to 96-well enzyme-labeled wells at 100 μL/well for coating at 4° C. overnight; the coating solution was discarded, the plate was washed once with PBST, 100 μL of PBS (containing 2% BSA) was added to each well, and the plate was blocked at 37° C. for 1 h; then 100 μL of the B7H3 fully human antibody diluted with PBS (containing 2% BSA) (starting at 10 g, 3-fold dilution in duplicate) was added to each well, and the plate was incubated at 37° C. for 2 h; the plate was washed 3 times with PBST, a horseradish peroxidase-labeled anti-human Fc antibody (diluted with PBS at 1:10000) was added at 100 µL/well, and the system was reacted at 37° C. for 1 h; the plate was washed 5 times with PBST. TMB color development solution was added for color development at 100 μL/well at 37° C. for 7 min, and a stop solution was added to stop the reaction at 50 µL/well. The absorbance was measured at 450 nm. EC50 values were calculated from the original data.

[1] = biological target: T2, B7H3 on tumor cells (MCF-7, A549, PC-3); experiment: flow cytometry on A549 tumor cells
Description: (§2) B7H3 proteins are highly expressed in various solid tumor cells. The affinity of the B7H3 fully human antibody for tumor cells was assayed by a FACS method. […] The average fluorescence signal values were measured using a Beckman flow cytometer. The EC50 values were calculated from the average fluorescence signal values.

monkey B7H3-4IgG-his = biological target: T3, monkey B7H3-4IgG-his; experiment: ELISA, coated monkey B7H3-4IgG-his, anti-human Fc-HRP detection
Description: as §1

[2] = biological target: T2, B7H3 on tumor cells (MCF-7, A549, PC-3); experiment: flow cytometry on MCF-7 tumor cells
Description: as §2

[3] = biological target: T2, B7H3 on tumor cells (MCF-7, A549, PC-3); experiment: flow cytometry on PC-3 tumor cells
Description: as §2

Binder | EC50 (human B7H3-4IgG-his) [pM] | EC50 [1] [pM] | EC50 (monkey B7H3-4IgG-his) [pM] | EC50 [2] [pM] | EC50 [3] [pM]
anti-B7H3 antibody 1D1-01 (antibody, V domains shown) VH: EGQLVESGGGLVQPGGSLRLSCAASGFTISSYWMNWVRQAPGKGLEWVANIKQDGSEKYYVDSVQGRFTISRDNAKNSLYLQMNSLRAEDTAVYYCARRMYSSGWYWGAFDMWGQGTMVTVSS VL: EIVLTQSPGTLSLSPGERATLSCRASQSVSSIYLAWNQQKPGQAPRLLIYGTFKRATGIPDRFSGSGSGTDFTLTISSLEPEDFAVYYCQQYDTSSITFGQGTRLEIKR | 43.6 | 322 | 35.8 | 524 | 
anti-B7H3 antibody 2E3-02 (antibody, V domains shown) VH: EVQLLESGGGLVQPGGSLRLSCAASGFTFSSYAMNWVRQAPGKGLEWVSGISGSGGSTYYADSVQGRFTISRDNSKNTLYLQMNSLRAEDTAVYYCAKARSGYDYFFDYWGQGTLVTVSS VL: EIVLTQSPGTLSLSPGERATLSCRASQRISSSFLAWYQQKPGQAPSLLIYGASSRATGIPDRFSGSGSGTDFTLTISSLEPEDFAVFYCQQYSNSPLTFGGGTKVEIKR | 17.5 | 150 | 27.7 | 398 | 63
